For this data set the following is noted: during the On-D period; 16 subjects; chronic constipation in one, irritable bowel syndrome in the other.

For vitamin D, the “Constipation reported (subjects)” value is reported as “two”.

For the origin of these results see patent publication US20090163452A1, “COMPOSITIONS AND METHODS FOR LOWERING SERUM CHOLESTEROL” (priority 2007, published 2009).
